Experimental data published in patent US6825390B1, “Stabilization and use of propargyl bromide” (priority 2002, dated 2004).

Test: Sensitivity to detonative shock confined in a heavy steel tube, pentolite booster, witness plate (Example 10)

Structure (SMILES): C#CCBr
- Observations: Witness Plate (detonative shock, confined in heavy steel tube, pentolite booster initiated by blasting cap): No damage
- Results (positive if a hole is punched through the witness plate and/or the steel cylinder is fragmented entirely): no
